Key:
Assay type in all cases: in vivo
[1] = tested on: B6.129P2-Fmr1tm1Cgr/J transgenic (TG) mice; assay: Locomotor activity test, SmartCage ~24 h recording; conditions: A-804598 IP 30 mg/kg/day, tangeretin IP 10 mg/kg/day, versus WT control group
From the text: The Locomotor Activity test is a means of establishing spontaneous locomotor activity, arousal, and willingness to explore in rodents. It is one of the most common rodent tests which can be used to test the effects of various medications on animal behavior in both wild type and genetically modified animals. See, Seibenhener M L, Wooten M C. Use of the Open Field Maze to measure locomotor and anxiety-like behavior in mice. J Vis Exp. 2015; (96):e52434. Published 2015 Feb. 6. doi:10.3791/52434.
This study used a SmartCage™ system, which is an automated non-invasive rodent behavioral monitoring system which enables biomedical researchers to conduct a variety of neurobehavioral assays through consistent and accurate monitoring of rodent home cage activity and behavior. See, Xie et al, 2012, (Ibid.).
Materials and Methods: Experimental Arms (Treatment Groups): • 1. N=6 mice per group. • 2. All behavioral testing included a group of untreated wild type controls. • 3. Dosing for the various groups were as follows: • a. […]
Male B6.129P2-Fmr1tm1Cgr/J TG (TG) mice were purchased from Jackson Laboratories, Bar Harbor, Maine. […] Body weights of all mice were recorded for health monitoring purposes.
Dosing was carried out over the course of 28 days as instructed by the study Sponsor. […] Day 1 to Day 2: Locomotor Activity recording is assessed using the SmartCage™ • 2. […]

[2] = tested on: B6.129P2-Fmr1tm1Cgr/J transgenic (TG) mice; assay: Step through passive avoidance test (learning and memory); conditions: 5-minute test, A-804598 IP 30 mg/kg/day, tangeretin IP 10 mg/kg/day, emodin+piperine PO 20 mg/kg each twice per day
From the text: The Passive Avoidance task is useful for evaluating the effect of novel chemical entities on learning and memory as well as studying the mechanisms involved in rodent models of CNS disorders. In this test, the test chamber is divided into a lighted compartment and a dark compartment, with a gate between the two. The test animals explored both compartments on the first day. The next day, they are given a mild foot shock in the dark compartment and they will learn to associate the dark compartment with the foot shock. In order to test their learning and memory, the mice are then placed back in the lighted compartment. Passive avoidance behavior of rodents is defined as the suppression of their innate preference for the dark compartment. Mice with normal learning and memory will avoid entering the dark chamber. Learning and memory from the previous day is measured by recording the latency to cross through the gate between the two compartments. See, J. David Sweatt, Chapter 4: Rodent Behavioral Learning and Memory Models, Editor: J. David Sweatt. Mechanisms of Memory (Second Edition), Academic Press, 2010, Pages 76-103, ISBN 9780123749512. […]
Male B6.129P2-Fmr1tm1Cgr/J TG (TG) mice were purchased from Jackson Laboratories, Bar Harbor, Maine. […] Body weights of all mice were recorded for health monitoring purposes. […]

[3] = tested on: B6.129P2-Fmr1tm1Cgr/J transgenic (TG) mice; assay: Light/dark preference test (LDT), anxiety-like behavior, SmartCage
From the text: The light/dark preference test (LDT) is one of the most widely used tests in pharmacology to measure unconditioned anxiety-like behavior in mice. The test is based on the natural aversion of mice to brightly illuminated areas and on their spontaneous exploratory behavior in response to a novel environment and light. See, Takao, K., et al., Light/dark Transition Test for Mice. J. Vis. Exp. (1), e104, doi:10.3791/104 (2006).
This study used a SmartCage™ system, which is an automated non-invasive rodent behavioral monitoring system which enables biomedical researchers to conduct a variety of neurobehavioral assays through consistent and accurate monitoring of rodent home cage activity and behavior. See, Xie X. S. et al. (2012) Rodent Behavioral Assessment in the Home Cage Using the SmartCage™™ System. In: Chen J., Xu X M., Xu Z., Zhang J. (eds) Animal Models of Acute Neurological Injuries II. Springer Protocols Handbooks. Humana Press, Totowa, NJ.
• 1. N=6 mice per group. • 2. All behavioral testing included a group of untreated wild type controls. • 3. Dosing for the various groups were as follows: • a. […] Group 2: IP saline, […], administered weekly to animals beginning at 9 weeks of age and continuing for four weeks (i.e. given at Age Weeks 9, 10, 11 and 12). • c. […] Groups 6-8: • Group 6: Compound A-804598 (purchased from Tocris), a selective P2X7 antagonist, dosed at 30 mg/kg/day by intraperitoneal injection, starting 7 days prior to the behavioral testing, and continuing through the completion of all experiments. • Group 7: Tangeretin (Sigma), a selective P2Y2 antagonist, dosed at 10 mg/kg/day by intraperitoneal injection, starting 7 days prior to the behavioral testing, and continuing through the completion of all experiments. The drug can be prepared in saline, with 10% Cremophore EL (Sigma) and 10% DSMO. • Group 8: Emodin (Sigma), a selective P2X7 antagonist, dosed by oral gavage at 20 mg/kg, in combination with Piperine (Sigma), dosed by oral gavage at 20 mg/kg, both administered twice per day, starting 7 days prior to the behavioral testing, and continuing through the completion of all experiments. • 1. Behavioral tests for all groups (Groups 1-5) began the following day after the last day of IN dosing (Weeks 13-14 of age). • 2. […]
Male B6.129P2-Fmr1tm1Cgr/J TG mice were purchased from Jackson Laboratories, Bar Harbor, Maine. […] Body weights of all mice were recorded for health monitoring purposes.
Dosing was carried out over the course of 28 days as instructed by the study sponsor. • 1. […] Anxiety-like behavior is assessed based on the SmartCage™ monitoring of time spent in the Light Zone, the number of Light Zone entries, and % Time Spent in the Light Zone. • 5. […]

[4] = 10-minute test, group regimens: A-804598 IP 30 mg/kg/day, tangeretin IP 10 mg/kg/day, emodin+piperine PO 20 mg/kg each twice per day

## C[C@H](N/C(=N/C#N)Nc1cccc2ncccc12)c1ccccc1 [Formulation A-804598, N-Cyano-N″-[(1S)-1-phenylethyl]-N′-5-quinolinyl-guanidine]
[1]
  Active time: greater activity compared to the WT control group
[2]
  percentage of time spent in the light zone on the test day: approximately 50%
  total light zone time on the test day: lower total time
[3]; [4]
  percentage of time spent in the Light Zone: higher percentage of time spent in the Light Zone
  total time spent in the light zone: ~8.2 min
[3]; A-804598 IP 30 mg/kg/day, 10-minute test, FIG. 11
  latency for Dark Zone entry compared with other treatment groups: 4 fold
[3]; A-804598 IP 30 mg/kg/day, cutoff 600 seconds
  dark box (Dark Zone) entry latency: 333.6 s
